How the values were obtained:
[1] = target: T1, Rho-associated protein kinase 2 (Homo sapiens, UniProt O75116); assay: Displacement of PRO22 from recombinant human ROCK2 (6 to 553 residues) assessed as Koff
[2] = target: T1, Rho-associated protein kinase 2; assay: Displacement of PRO22 from recombinant human ROCK2 (6 to 553 residues) assessed as residence time
[3] = target: T1, Rho-associated protein kinase 2; assay: Displacement of PRO22 from recombinant human ROCK2 (6 to 553 residues) assessed as Kon

By UniProt entry, the sequences of proteins in these tests, tags left out. Where a name states a change or a piece, a line headed by the entry shows the natural chain unless it says otherwise.
UniProt O75116: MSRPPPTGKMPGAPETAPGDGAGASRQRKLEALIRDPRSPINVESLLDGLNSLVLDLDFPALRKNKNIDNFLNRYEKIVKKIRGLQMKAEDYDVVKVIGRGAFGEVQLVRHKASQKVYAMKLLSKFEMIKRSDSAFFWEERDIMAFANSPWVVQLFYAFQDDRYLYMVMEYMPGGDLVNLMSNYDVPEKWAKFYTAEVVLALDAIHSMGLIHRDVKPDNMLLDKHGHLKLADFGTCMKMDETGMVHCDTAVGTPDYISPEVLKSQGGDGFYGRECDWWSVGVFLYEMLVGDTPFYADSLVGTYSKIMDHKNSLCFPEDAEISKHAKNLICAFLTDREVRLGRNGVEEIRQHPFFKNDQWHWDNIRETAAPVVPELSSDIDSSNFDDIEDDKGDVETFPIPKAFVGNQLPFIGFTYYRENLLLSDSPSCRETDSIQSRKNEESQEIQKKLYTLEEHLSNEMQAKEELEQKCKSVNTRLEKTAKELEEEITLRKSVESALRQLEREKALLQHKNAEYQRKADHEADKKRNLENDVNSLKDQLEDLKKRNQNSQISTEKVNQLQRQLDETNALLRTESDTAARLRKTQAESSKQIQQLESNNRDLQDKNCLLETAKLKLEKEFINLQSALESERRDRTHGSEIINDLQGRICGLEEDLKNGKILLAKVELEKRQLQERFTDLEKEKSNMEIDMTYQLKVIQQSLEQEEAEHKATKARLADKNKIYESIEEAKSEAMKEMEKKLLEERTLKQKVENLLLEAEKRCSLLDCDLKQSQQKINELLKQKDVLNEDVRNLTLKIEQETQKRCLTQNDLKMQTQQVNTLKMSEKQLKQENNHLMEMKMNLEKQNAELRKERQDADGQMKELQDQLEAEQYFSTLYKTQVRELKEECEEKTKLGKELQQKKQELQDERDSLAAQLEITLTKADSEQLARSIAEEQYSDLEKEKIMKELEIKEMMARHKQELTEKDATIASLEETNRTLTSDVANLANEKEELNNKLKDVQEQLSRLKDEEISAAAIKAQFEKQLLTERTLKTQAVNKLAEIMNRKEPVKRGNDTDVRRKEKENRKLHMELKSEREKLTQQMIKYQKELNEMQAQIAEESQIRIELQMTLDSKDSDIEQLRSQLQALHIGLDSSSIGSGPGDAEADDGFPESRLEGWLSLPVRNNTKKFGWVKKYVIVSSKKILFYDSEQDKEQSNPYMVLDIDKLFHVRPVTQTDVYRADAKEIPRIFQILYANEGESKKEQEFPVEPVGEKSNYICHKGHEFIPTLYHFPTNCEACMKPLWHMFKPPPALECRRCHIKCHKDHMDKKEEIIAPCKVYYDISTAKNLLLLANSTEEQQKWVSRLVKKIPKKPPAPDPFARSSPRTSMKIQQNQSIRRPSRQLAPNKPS

- K [1]: 1.31 10^-3/s
- TIME [2]: 0.212 h
- K [3]: 4.06 10^5/s
SMILES: COc1cccc([C@@H](C)NC(=O)N2CCN(c3ccncc3F)C[C@H]2C)c1
